Experimental data: EP0292169B1, “Substrates for B-galactosidase” (Bayer Corporation, priority 1987, dated 1988)

Assay: Molar absorptivity of phenolic precursors of substrates
Type: physicochemical
Conditions: 405 nm, pH 7.5

| SMILES | Molar Absorptivity (εmax) |
| --- | --- |
| Cc1cc([N+](=O)[O-])cc([N+](=O)[O-])c1O | 11.0 (405 nm, pH 7.5) |
| O=[N+]([O-])c1cc(Cl)c(O)c([N+](=O)[O-])c1 | 11.5 (405 nm, pH 7.5) |
